# Screening results (PubChem BioAssay)
# Yeast UUG start: yeast start codon fidelity modulation. S. cerevisiae UUG-firefly luciferase reporter, luminescence/redox ratio. activity score, % at 18.7 µM. 0.13% of 350,000 active;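 active = replicate mean at a twofold rise or more, about +100% in these data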;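 also: firefly luciferase made from a UUG start codon reports start codon fidelity; reporter light over untreated wells divided by growth signal over untreated wells; some hits fall short of that in this replicate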
# Cneo AK release: causes C. neoformans cell lysis | adenylate kinase release luminescence, 4 h; normalised: neutral wells 0, clomiphene wells 100 | lysis activity, % at 15 µM | 360,000 compounds, 0.2% hits;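 active means mean lysis activity across replicates of at least 80%, whatever share of replicates individually reach that level; inactive means mean lysis activity below 80%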
#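 Material: C. neoformans cells; Schedule: 4 h static compound exposure, 37 °C, read 1 h post-reagent; Measured by: adenylate kinase release luminescence; Read-out: signal increase indicating cell lysis; Controls: Clomiphene as positive lysis control.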
# Glyco luc inh: blocks N-linked glycosylation in D54 reporter cells; reporter increase, % at 12.5 µM; D54 ERlucT glycosylation luciferase reporter, 24 h; percent of 100 nM tunicamycin response; 360,000 compounds, 0.23% hits;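 active means mean luciferase reporter signal, scaled so untreated is 0 and the glycosylation-blocking control 100, at or above a set limit in every replicate; inconclusive means mean reaches the limit but not every replicate does; inactive means mean below the limit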;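 further: luciferase carries N-glycosylation sites so blocking glycosylation raises the light; 0% = median of neutral control wells and 100% = median of 100 nM tunicamycin wells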
# miR122 inh: miR-122 inhibition in Huh7 cells; Huh7 miR-122 Renilla luciferase sensor, 48 h; neutral wells = 0, positive control = 100; activation (reporter increase), % at 12.5 µM; 340,000 compounds, 0.3% hits; AID 602342;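 active means mean replicate activation score at least 90 and every replicate individually at or above 90; inconclusive means only one of the two criteria met; inactive means neither criterion met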;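 further: higher luciferase means less miR-122 activity so hits act as miR-122 inhibitors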
# C2C12 statin: protects C2C12 myotubes from simvastatin toxicity. ATP luminescence, 48 h; scaled: DMSO 0, geranylgeraniol control 100. rescue of ATP level, % at 7.49 µM. 330,000 compounds, 0.78% hits;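 active means mean ATP rescue above about 67%, or every replicate alone reaching that limit, limit read from the data, passing the limit was not always enough; inconclusive means no clear call, values can overlap the other calls; inactive means mean under the limit and some replicate under it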;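 further: myotubes were challenged with 10 µM simvastatin during compound exposure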
# The depositor's hits bear a star; u = inconclusive; x = no result given; [ ] = dose if it differs, or a comment. A selection: hits, their analogues and other compounds. The true share with any hit is near 1.2%.
# Values in the order: Yeast UUG start	Cneo AK release	Glyco luc inh	miR122 inh	C2C12 statin
- O=C(CSC1=Nc2ccccc2C2=NC(Cc3c[nH]c4ccccc34)C(=O)N12)NC1CCCCC1 (stereo not drawn)
→ -7.3	-0.2	2.4	17.9	-16.0
- CSc1ccc(/C=C(/NC(=O)c2ccccc2)C(=O)NCCCn2ccnc2)cc1
→ -21.8	1.1	0.1	112.8*	-1.9
- O=C(C[C@H]1C=C[C@@H](NC(=O)Cc2cccnc2)[C@H](CO)O1)Nc1ccccc1
→ x	-10.3	x	x	8.0
- CCOC(=O)c1c(NC(C)=O)sc2c1CCC(C=O)=C2Sc1ccccc1
→ -11.0	1.9	32.3*	0.3	24.2
- COc1ccc(NC(=O)N(C)C[C@H]2Oc3ncc(C#C[C@H](C)O)cc3C(=O)N([C@@H](C)CO)C[C@H]2C)cc1
→ -11.2	-2.5	x	-2.5[16.7 µM]	24.0
- CCCN1C[C@@H](C)[C@H](OC)CN(C)C(=O)c2ccc(NC(=O)c3ccccn3)cc2OC[C@H]1C
→ x	x	x	13.2[16.7 µM]	-8.8
- O=C(NCCCN1CCCCC1)c1ccc2c(c1)NC(=O)C(N1CCCCC1)S2 (stereo not drawn)
→ x	x	-3.6	-1.0	x
- CC1CC(C)CN(CCCNC(=O)c2ccc3c(c2)NC(=O)C(N2CCCCC2)S3)C1 (stereo not drawn)
→ x	x	-4.2	-15.7	106.6*
- C[C@@H]1CN([C@H](C)CO)C(=O)Cc2cc(NC(=O)CCCCCC(=O)Nc3ccccc3N)ccc2O[C@H]1CN(C)C(=O)Nc1ccccc1
→ 17.3	104.9*	x	19.6[16.7 µM]	-17.4
- C[C@@H]1CN([C@@H](C)CO)C(=O)Cc2cc(NC(=O)CCCCCC(=O)Nc3ccccc3N)ccc2O[C@@H]1CN(C)C(=O)Nc1ccccc1
→ 9.1	0.1	x	-4.4[16.7 µM]	11.6
- C[C@H]1CN([C@@H](C)CO)C(=O)Cc2cc(NC(=O)CCCCCC(=O)Nc3ccccc3N)ccc2O[C@H]1CN(C)C(=O)Nc1ccccc1
→ 23.6	93.6*	x	39.7[16.7 µM]	7.3
- C[C@@H]1CN([C@@H](C)CO)C(=O)Cc2cc(NC(=O)CCCCCC(=O)Nc3ccccc3N)ccc2O[C@@H]1CN(C)C(=O)Nc1ccc(F)cc1
→ x	x	x	-7.2[16.7 µM]	2.0
- CCc1nc(N2CCCCC2C)c2oc3ccccc3c2n1 (stereo not drawn)
→ -0.1	85.7*	20.1	10.5	-28.8
- CCc1nc(N2CCCCC2C(=O)O)c2oc3ccccc3c2n1 (stereo not drawn)
→ x	x	2.4	-4.3	17.5
- Cc1ccc(-c2nc(C(=O)NCCCN(C)C)cc3c2[nH]c2ccccc23)cc1
→ -9.4	3.2	46.2*	1.7	27.5
- C[C@H]1CN([C@@H](C)CO)C(=O)c2cccc(N(C)C)c2O[C@@H]1CN(C)C(=O)Nc1cccc2ccccc12
→ 7.8	84.5*	x	-1.2[16.7 µM]	-1.1
- C[C@@H]1CN([C@@H](C)CO)C(=O)c2cc(NC(=O)Nc3ccccc3)ccc2O[C@@H]1CN(C)C(=O)Nc1cccc2ccccc12
→ 19.1	108.2*	x	17.2[16.7 µM]	-40.9
- C[C@H]1CN([C@@H](C)CO)C(=O)c2cc(NC(=O)Nc3cccc4ccccc34)ccc2O[C@@H]1CN(C)C(=O)Nc1ccc(C(F)(F)F)cc1
→ 16.4	89.9*	x	11.9[16.7 µM]	29.5
- C[C@H]1CN([C@@H](C)CO)C(=O)c2cc(NC(=O)Nc3cccc4ccccc34)ccc2O[C@H]1CN(C)C(=O)Nc1ccccc1
→ -6.9	-2.1	x	4.9[16.7 µM]	9.6
- C[C@@H]1CN([C@@H](C)CO)C(=O)c2cc(NC(=O)Nc3ccccc3)ccc2O[C@H]1CN(C)C(=O)Nc1cccc2ccccc12
→ 11.2	-0.2	2.9	10.2[16.7 µM]	-4.9
- C[C@@H]1CN([C@@H](C)CO)C(=O)c2cc(NC(=O)Nc3cccc4ccccc34)ccc2O[C@@H]1CN(C)C(=O)Nc1ccccc1
→ 13.6	107.2*	x	3.8[16.7 µM]	1.9
- COc1ccc(-c2cc3ccccc3oc2=O)cc1NC(=O)c1ccc(Br)o1
→ -8.8	2.2	-4.5	x	-11.1
- COc1ccc(-c2cc3ccccc3oc2=O)cc1NC(=S)NC(=O)c1ccc2c(c1)OCCO2
→ -4.0	0.3	70.2*	-6.1	-79.0
- COc1ccc(-c2cc3ccccc3oc2=O)cc1NC(=O)c1ccc([N+](=O)[O-])o1
→ x	x	49.5*	-2.4	u
- COC(=O)[C@@H]1[C@@H](CO)[C@@H]2Cn3c(ccc(-c4cccc(F)c4)c3=O)[C@@H]2N1Cc1ccccn1
→ x	1.7	x	0.4[16.7 µM]	-40.2
- Cc1cc(C(=O)Nc2cccc3c2O[C@@H](CN(C)S(=O)(=O)c2ccccc2)[C@@H](C)CN([C@@H](C)CO)C3=O)n(C)n1
→ 15.8	103.9*	x	18.0[16.7 µM]	-35.6
- COc1ccc(S(=O)(=O)N(C)C[C@H]2Oc3c(NC(=O)Nc4ccccc4)cccc3C(=O)N([C@H](C)CO)C[C@@H]2C)cc1
→ 21.7	0.1	-1.9	2.7	-7.4
- C[C@H](CO)N1C[C@H](C)[C@@H](CN(C)S(=O)(=O)c2ccccc2)Oc2c(NC(=O)Nc3cccc4ccccc34)cccc2C1=O
→ 9.5	102.7*	x	52.3[16.7 µM]	8.1
- Cc1cc(C(=O)Nc2cccc3c2O[C@@H](CN(C)S(=O)(=O)c2ccccc2)[C@@H](C)CN([C@H](C)CO)C3=O)n(C)n1
→ 23.5	-3.6	x	33.5[16.7 µM]	-25.5
- COc1ccc(S(=O)(=O)N(C)C[C@H]2Oc3c(NC(=O)Nc4ccccc4)cccc3C(=O)N([C@H](C)CO)C[C@H]2C)cc1
→ x	x	x	-4.7[16.7 µM]	77.6*
- C[C@@H]1CN([C@H](C)CO)C(=O)c2cccc(NC(=O)Nc3cccc4ccccc34)c2O[C@@H]1CN(C)S(=O)(=O)c1ccccc1
→ -11.8	-2.4	x	-11.1[16.7 µM]	3.9
- N#Cc1cnc(SCC(=O)NNC(=O)COc2cccc3ccccc23)nc1N
→ -4.2	-5.6	0.3	5.3	x
- NC(=O)N=Nc1c2[nH]c3ccccc3nc-2c2ccccc12
→ -12.4	9.5	94.2*	-5.0	x
- CC(C)(C)c1ccc(OCc2ccc(C(=O)Nc3cccnc3)o2)cc1
→ -19.1	-1.6	28.6*	2.8	-49.0
- O=C(NCc1ccco1)C1Cc2ccccc2CN1C(=O)c1ccco1 (stereo not drawn)
→ x	x	-1.6	-0.3	-2.9
- O=C(NCc1ccco1)C1Cc2ccccc2CN1S(=O)(=O)c1ccccc1F (stereo not drawn)
→ -14.6	1.6	-1.6	9.8	66.7*
- Cc1nn(-c2cc(N3CCCCCC3)ccc2[N+](=O)[O-])c(=O)c2ccccc12
→ -12.5	0.3	1.9	14.6	109.5*
- O=C(C(=O)N(Cc1ccccc1)Cc1ccccc1)c1c(-c2ccccc2)[nH]c2ccccc12
→ -10.6	0.2	-6.2	100.0*	-6.5
- COCCNC(=O)C(=O)c1c(-c2ccccc2)[nH]c2ccccc12
→ -2.6	0.4	0.8	-3.2	-5.5
- COc1ccc(S(=O)(=O)N(C)C[C@@H]2Oc3ccc(NS(=O)(=O)c4ccc(Cl)cc4)cc3CC(=O)N([C@H](C)CO)C[C@@H]2C)cc1
→ -9.0	1.3	x	1.4[16.7 µM]	20.5
- Cc1ccc(S(=O)(=O)N(C)C[C@@H]2Oc3ccc(NS(=O)(=O)c4ccc(Cl)cc4)cc3CC(=O)N([C@@H](C)CO)C[C@@H]2C)cc1
→ 29.0	100.0*	x	-2.6[16.7 µM]	4.0

# Only C2C12 statin, Glyco luc inh and Cneo AK release (five entries from above):
structure	C2C12 statin	Glyco luc inh	Cneo AK release
COc1ccc(S(=O)(=O)N(C)C[C@@H]2Oc3ccc(NS(=O)(=O)c4ccc(Cl)cc4)cc3CC(=O)N([C@H](C)CO)C[C@@H]2C)cc1	20.5	x	1.3
C[C@@H]1CN([C@@H](C)CO)C(=O)c2cc(NC(=O)Nc3ccccc3)ccc2O[C@@H]1CN(C)C(=O)Nc1cccc2ccccc12	-40.9	x	108.2*
COc1ccc(-c2cc3ccccc3oc2=O)cc1NC(=O)c1ccc(Br)o1	-11.1	-4.5	2.2
COC(=O)[C@@H]1[C@@H](CO)[C@@H]2Cn3c(ccc(-c4cccc(F)c4)c3=O)[C@@H]2N1Cc1ccccn1	-40.2	x	1.7
C[C@@H]1CN([C@@H](C)CO)C(=O)Cc2cc(NC(=O)CCCCCC(=O)Nc3ccccc3N)ccc2O[C@@H]1CN(C)C(=O)Nc1ccc(F)cc1	2.0	x	x
